From patent EP0421367B1, “Anticoagulant peptides” (MERRELL PHARMACEUTICALS INC., priority 1989, dated 1991)

Molecular target: Bovine thrombin (Bos taurus, UniProt P00735)
Test: biochemical

Compound | pIC50
CC[C@H](C)[C@H](NC(=O)[C@@H]1CCCN1C(=O)[C@H](Cc1ccc(O)cc1)NC(=O)CCC(=O)O)C(=O)N1CCC[C@H]1C(=O)N[C@@H](CCC(=O)O)C(=O)N[C@@H](CCC(=O)O)C(=O)N[C@@H](C)C(=O)N[C@@H](CC1CCCCC1)C(=O)N[C@H](CCC(=O)O)C(=O)O [Peptide 1] | 3.70 to 4.60
C[C@H](NC(=O)[C@H](CCC(=O)O)NC(=O)[C@H](CCC(=O)O)NC(=O)[C@@H]1Cc2ccccc2CN1C(=O)[C@@H]1CCCN1C(=O)[C@H](CCC(=O)O)NC(=O)[C@H](Cc1ccc(O)cc1)NC(=O)CCC(=O)O)C(=O)N[C@@H](CC1CCCCC1)C(=O)N[C@H](CCC(=O)O)C(=O)O [Peptide 3] | > 4.60
CC[C@H](C)[C@H](NC(=O)[C@@H]1CCCN1C(=O)[C@H](CCC(=O)O)NC(=O)[C@H](Cc1ccc(O)cc1)NC(=O)CCC(=O)O)C(=O)N1CCC[C@H]1C(=O)N[C@@H](CCC(=O)O)C(=O)N[C@@H](CCC(=O)O)C(=O)N[C@@H](C)C(=O)N[C@@H](CC(N)=O)C(=O)O [Peptide 5] | > 4.60
CC[C@H](C)[C@H](NC(=O)[C@@H]1CCCN1C(=O)[C@H](Cc1ccc(O)cc1)NC(=O)/C=C\C(=O)O)C(=O)N1CCC[C@H]1C(=O)N[C@@H](CCC(=O)O)C(=O)N[C@@H](CCC(=O)O)C(=O)N[C@@H](C)C(=O)N[C@@H](CC1CCCCC1)C(=O)N[C@H](CCC(=O)O)C(=O)O [Peptide 6] | 3.70 to 4.60
CC[C@H](C)[C@H](NC(=O)[C@H](CCC(=O)O)NC(=O)[C@H](Cc1ccc(O)cc1)NC(=O)CCC(=O)O)C(=O)N1CCC[C@H]1C(=O)N[C@@H](CCC(=O)O)C(=O)N[C@@H](CCC(=O)O)C(=O)N[C@@H](C)C(=O)N[C@@H](CC1CCCCC1)C(=O)N[C@H](CCC(=O)O)C(=O)O [Peptide 8] | 3.70 to 4.60
C[C@H](NC(=O)[C@H](CCC(=O)O)NC(=O)[C@H](CCC(=O)O)NC(=O)[C@@H]1CCCN1C(=O)[C@@H]1CCCN1C(=O)[C@H](CCC(=O)O)NC(=O)[C@H](Cc1ccc(O)cc1)NC(=O)CCC(=O)O)C(=O)N[C@@H](CC1CCCCC1)C(=O)N[C@H](CCC(=O)O)C(=O)O [Peptide 9] | 3.70 to 4.60
CC[C@H](C)[C@H](NC(=O)[C@@H]1CCCN1C(=O)[C@H](CCC(=O)O)NC(=O)[C@H](Cc1ccc(O)cc1)NC(=O)CCC(=O)O)C(=O)N[C@@H](CCC(=O)O)C(=O)N[C@@H](CCC(=O)O)C(=O)N[C@@H](C)C(=O)N[C@@H](CC1CCCCC1)C(=O)N[C@H](CCC(=O)O)C(=O)O [Peptide 10] | > 4.60
CC[C@H](C)[C@H](NC(=O)[C@@H]1CCCN1C(=O)[C@H](CCC(=O)O)NC(=O)[C@H](Cc1ccc(O)cc1)NC(=O)CCC(=O)O)C(=O)N1CCC[C@H]1C(=O)N[C@@H](CCC(=O)O)C(=O)N[C@@H](CCC(=O)O)C(=O)N[C@@H](C)C(=O)N[C@H](CCC(=O)O)C(=O)O [Peptide 11] | > 4.60
CC[C@H](C)[C@H](NC(=O)[C@@H]1CCCN1C(=O)[C@H](CCC(=O)O)NC(=O)[C@H](Cc1ccc(O)cc1)NC(=O)CCC(=O)O)C(=O)N1CCC[C@H]1C(=O)N[C@@H](CCC(=O)O)C(=O)N[C@@H](CCC(=O)O)C(=O)N[C@@H](C)C(=O)N[C@@H](CCC(N)=O)C(=O)O [Peptide 12] | > 4.60
CC[C@H](C)[C@H](NC(=O)[C@@H]1CCCN1C(=O)[C@H](CCC(=O)O)NC(=O)[C@H](Cc1ccccc1)NC(=O)CCC(=O)O)C(=O)N1CCC[C@H]1C(=O)N[C@@H](CCC(=O)O)C(=O)N[C@@H](CCC(=O)O)C(=O)N[C@@H](C)C(=O)N[C@@H](CCC(N)=O)C(N)=O [Peptide 13] | 3.70 to 4.60
CC[C@H](C)[C@H](NC(=O)[C@@H]1CCCN1C(=O)[C@H](CCC(=O)O)NC(=O)CCC(=O)O)C(=O)N1CCC[C@H]1C(=O)N[C@@H](CCC(=O)O)C(=O)N[C@@H](CCC(=O)O)C(=O)N[C@@H](C)C(=O)N[C@@H](CC1CCCCC1)C(=O)N[C@H](CCC(=O)O)C(=O)O [Peptide 14] | 3.70 to 4.60

pIC50: −log10 of the molar value.
